According to patent publication US20100239556A1, “PROMOTING ECM PRODUCTION BY FIBROBLAST CELLS AND/OR PROMOTING MIGRATION OF FIBROBLAST CELLS IN A BIOLOGICAL SYSTEM” (TGR BioScience Pty Ltd., priority 2006, published 2010):

Test system: human foreskin fibroblast cells (HFF)
Assay: Soluble collagen I, III and VI in HFF conditioned media (direct coat ELISA)
Format: cell-based
Conditions: 72 hours
Method: Primary human foreskin fibroblast cells (HFF) were seeded into 96 well plates at a density of 1.2×10^4 cells/well and cultured overnight in 10% fetal bovine serum/Dulbecco's minimum essential media (10% FBS/DMEM) at 37° C. and 5% CO2. The cells were then starved overnight in serum free DMEM and triplicate wells treated for six hours with a range of doses of proteins with peroxidase activity; horse radish peroxidase (HRP; 0.2-50 ug/ml), Arthromyces ramosus peroxidase (ARP; 0.2-50 ug/ml), microperoxidase (MP; 8-500 ug/ml), soy bean peroxidase (SBP; 0.2-100 ug/ml) and lactoperoxidase (LP; 10-310 ug/ml) (all obtained from Sigma-Aldrich). At the end of the six hour treatment period, the media was aspirated and replaced with fresh serum free DMEM and the cells cultured for a further 72 hours. […] Briefly, cells were bathed in a 10% Alamar Blue/phosphate-buffered saline (PBS) solution for 30-60 minutes and fluorescence measured at wavelengths of 485 nm excitation and 595 nm emission using a Wallac Victor Multilabel HTS counter. Relative fluorescent units (RFU) for each sample were normalized to control wells (DMEM only treated cells) and data expressed as mean±standard error of the mean (sem) for triplicate wells. […]

recombinant ascorbate peroxidase [APX]
increase in collagen I production (5 μg/ml): 1.4 fold
increase in collagen I production (175 μg/ml): 3.9 fold
